Data taken from US11123292B2, “Use of biocompatible microdroplets for the treatment of atherosclerosis, heart disease and stroke” (priority 2014, dated 2021).

Test: Water insoluble solvents tested for dissolving cholesterol / arterial plaque
Conditions: medium not stated

With `CCCCCCCC/C=C\CCCCCCCC(=O)O` [oleic acid] the “result of solvent testing (dissolving cholesterol)” value was “very promising results”.
